Values of other authors, collected in paper PMC10629583, “Specific inhibition of an anticancer target, polo-like kinase 1, by allosterically dismantling its mechanism of substrate recognition” (Proceedings of the National Academy of Sciences of the …, 2023).

The chains behind the UniProt entries cited, without tags or fusion partners. Residues count along the entry.
UniProt P53350, 371-603: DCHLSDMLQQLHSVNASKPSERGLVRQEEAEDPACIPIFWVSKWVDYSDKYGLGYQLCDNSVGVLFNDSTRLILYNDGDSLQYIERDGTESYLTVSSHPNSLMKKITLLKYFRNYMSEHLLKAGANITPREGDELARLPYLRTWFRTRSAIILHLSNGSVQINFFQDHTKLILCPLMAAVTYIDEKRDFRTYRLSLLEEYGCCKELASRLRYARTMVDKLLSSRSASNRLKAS
UniProt Q71F23, whole entry, looked up, tested part not stated: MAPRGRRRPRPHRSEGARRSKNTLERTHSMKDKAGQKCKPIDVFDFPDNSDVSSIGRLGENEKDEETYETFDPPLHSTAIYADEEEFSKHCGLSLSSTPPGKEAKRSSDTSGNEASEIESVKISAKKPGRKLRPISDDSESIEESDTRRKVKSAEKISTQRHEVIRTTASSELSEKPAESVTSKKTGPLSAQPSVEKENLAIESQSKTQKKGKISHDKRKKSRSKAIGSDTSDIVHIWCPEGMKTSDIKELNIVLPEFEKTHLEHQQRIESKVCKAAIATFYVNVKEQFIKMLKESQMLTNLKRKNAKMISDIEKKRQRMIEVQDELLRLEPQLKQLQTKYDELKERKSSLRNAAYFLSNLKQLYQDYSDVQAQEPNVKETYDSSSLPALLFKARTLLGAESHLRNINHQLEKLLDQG

Target: PLK1 PBD (Homo sapiens) (UniProt P53350)

## PLHSpT (PBIP1 p-T78 peptide) (from UniProt Q71F23)
  Kd: 450 nM
